Values quoted from earlier work, collected in US8765940B2 (priority 2009, dated 2014).

Chains of the proteins cited; added tags and fusions are not shown.
UniProt P42338, whole entry, species assumed: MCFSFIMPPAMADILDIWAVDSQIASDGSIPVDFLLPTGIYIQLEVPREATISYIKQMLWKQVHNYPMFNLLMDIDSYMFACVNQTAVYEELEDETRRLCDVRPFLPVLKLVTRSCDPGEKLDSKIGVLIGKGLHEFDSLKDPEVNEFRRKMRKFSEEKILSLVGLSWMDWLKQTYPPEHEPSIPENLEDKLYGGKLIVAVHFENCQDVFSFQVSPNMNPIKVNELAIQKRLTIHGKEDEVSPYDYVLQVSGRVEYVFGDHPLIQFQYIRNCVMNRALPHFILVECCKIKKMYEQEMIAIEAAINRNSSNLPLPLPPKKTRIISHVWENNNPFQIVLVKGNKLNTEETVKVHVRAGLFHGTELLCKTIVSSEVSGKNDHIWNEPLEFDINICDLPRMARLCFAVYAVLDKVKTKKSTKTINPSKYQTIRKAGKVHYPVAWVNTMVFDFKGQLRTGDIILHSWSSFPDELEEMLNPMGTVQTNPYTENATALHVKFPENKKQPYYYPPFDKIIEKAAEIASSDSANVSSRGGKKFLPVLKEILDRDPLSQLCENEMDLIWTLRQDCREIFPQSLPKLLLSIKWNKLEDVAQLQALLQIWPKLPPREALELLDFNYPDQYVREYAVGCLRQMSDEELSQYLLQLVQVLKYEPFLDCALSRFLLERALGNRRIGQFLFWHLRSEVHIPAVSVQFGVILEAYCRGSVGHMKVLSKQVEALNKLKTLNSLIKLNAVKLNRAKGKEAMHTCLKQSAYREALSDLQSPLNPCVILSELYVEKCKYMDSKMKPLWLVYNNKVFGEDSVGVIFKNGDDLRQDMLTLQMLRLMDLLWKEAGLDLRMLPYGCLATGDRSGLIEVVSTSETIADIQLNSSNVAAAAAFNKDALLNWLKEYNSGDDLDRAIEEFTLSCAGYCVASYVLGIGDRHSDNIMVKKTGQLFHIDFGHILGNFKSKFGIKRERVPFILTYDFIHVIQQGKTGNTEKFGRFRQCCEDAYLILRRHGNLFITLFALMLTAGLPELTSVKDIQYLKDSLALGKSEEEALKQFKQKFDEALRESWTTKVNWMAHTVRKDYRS

Target: p110β (Homo sapiens (Human), UniProt P42338)
Details: read-out: potency on beta; cited from earlier work

Cc1cc(C(C)Nc2ccccc2)c2nc(N3CCOCC3)cc(=O)n2c1 (stereo not shown) [TGX-221]
IC50: 7 nM
